System: N
Assay: purified protein
Settings: reductive amination, 0.2 mM NADH, 5 mM α-KG, 80 mM Tris-HCl pH 8.0, 25 °C

**Q.** How did the Km turn out when GdhPa (Pantoea ananatis LMG 5342) was run?
**A.** Its Km is 5.87 ± 0.20 mM.

**Q.** What about the Vmax of the same substance?
**A.** Its Vmax is 5.01 µmol/min/mg.

**Q.** What about the kcat of the same substance?
**A.** Its kcat is 3.88 s⁻¹.

**Q.** What about the kcat/Km of the same substance?
**A.** The kcat/Km was 662 M⁻¹ s⁻¹.
